Experimental data taken from patent US10913710B2, “Benzene disulfonamide for the treatment of cancer” (priority 2017, dated 2021).

Key:
Panc-Tu-I cells = assay: Real time cell analysis (RTCA) proliferation; assay type: cell-based, human; conditions: even at submicromolar concentrations
Procedure: (§1) Panc-TU-1, MiaPaCa-2, PANC-1 and BxPC-3 cell lines were cultured in DMEM supplemented with 10% fetal calf serum, 1% L-glutamine (PAN-Biotech) and 1% non-essential amino acids (PAN-Biotech). The cells were maintained in a humidified incubator at 37° C. and 5% CO2. For microscopy, cells were seeded in four-well Lab-Tek chambers (Thermo Scientific) in DMEM without phenol red, supplemented with 25 mM HEPES. Transfection was performed with either Effectene (Qiagen) or Lipofectamine 2000 (Invitrogen). RTCA measurements of Panc-TU-1, MiaPaCa-2, PANG-1 and BxPC-3 cell lines were performed on a Dual Plate xCELLigence instrument (Roche Applied Science, Indianapolis, Ind.). This device measures a dimensionless cell index which is based on impedance. Depending on the cell line 5×10^3-7.5×10^3 cells were seeded in each well of 16-well E-plate. After seeding, cells were allowed to settle for 15 min at room temperature before insertion into the xCELLigence instrument in a humidified incubator at 37° C. with 5% CO2. The cells were treated with the small-molecule inhibitors compound 16 (Deltasonamide 1) or compound 19 (Deltasonamide 2) after a growth period of approximately 24 h. […] The impedance was measured in 15 min intervals for up to 100 h. Assays were performed in triplicates, each containing two technical duplicates. The cell index was normalized to 1 at the time point of drug administration.

MiaPaCa-2 cells = assay: Real time cell analysis (RTCA) proliferation; assay type: cell-based, human; conditions: even at submicromolar concentrations
Procedure: as §1

[1] = tested on: colorectal cancer cell lines DiFi, HCT-116, Hke3, Hkh2, HT29 and SW480; assay: Real time cell analysis (RTCA) proliferation of colorectal cancer cell lines; assay type: cell-based, human; conditions: even at lower micromolar concentrations
Procedure: and SW480 cell lines are maintained in DMEM (Dulbecco's modified Eagle medium, Sigma-Aldrich Biochemie GmbH, Taufkirchen, Germany) supplemented with 10% FCS (fetal calf serum), 2 mM L-glutamine (Sigma-Aldrich Biochemie GmbH, Taufkirchen, Germany), and 1% non-essential amino acids (NEAA; Sigma-Aldrich Biochemie GmbH, Taufkirchen, Germany), at 37° C. and 5% CO2 in a humidified incubator. HT29 cells (ATCC, American Type Culture Collection, […], Va., USA) are maintained in Ham's medium, supplemented with 10% FCS (fetal calf serum) and 1 mM L-glutamine (Sigma-Aldrich Biochemie GmbH, Taufkirchen, Germany), at 37° C. and 5% CO2 in a humidified incubator. RTCA measurements of HT29, […] and SW480 cell lines were performed using 16-well E-plates on a Dual Plate xCELLigence instrument (Roche Applied Science, Indianapolis, Ind.) in a humidified incubator at 37° C. with 5% CO2. This device measures the impedance-based cell index (CI), Continuous impedance measurements are monitored every 15 min for up to 300 hours. Blank measurements are performed with growth medium. Depending on the cell line 1×10^4-2×10^4 cells are plated in each well of 16-well E-plate for short-term measurements and 0.75-2×10^3 cells/well for long-term measurements. […]

in vitro = conditions: human, Caco-2, pH 6.5
Procedure: Caco-2 Permeability Assay:
The compound concentration was measured in the receiver as well as the donor well.

CNc1nccc(CN(CC2CCNCC2)S(=O)(=O)c2ccc(S(=O)(=O)N(Cc3ccc(Cl)cc3)C3CCCC3)cc2)n1 [Compound 16, N1-(4-Chlorobenzyl)-N1-cyclopentyl-N4-((2-(methylamino)pyrimidin-4-yl)methyl)-N4-(piperidin-4-ylmethyl)benzene-1,4-disulfonamide]
proliferation (RTCA) (Panc-Tu-I cells): strongly reduced proliferation | proliferation (RTCA) (MiaPaCa-2 cells): strongly reduced proliferation | proliferation (RTCA) [1]: strongly reduced proliferation | efflux ratio at 2 h, 10 μM (in vitro): 8.8
